Experimental data as given in PubChem BioAssay (NCI).
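Assay format: 96-well plates, 48-hour exposure. TGI marks complete inhibition of growth.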

Experiments:
Assay in all cases: DTP human tumour cell line panel, 48 h
[1] = system: MDA-N
[2] = system: HCT-15 colon
[3] = system: NCI-H522 lung
[4] = system: 786-0 renal
[5] = system: MOLT-4 leukemia
[6] = system: TK-10 renal
[7] = system: UO-31 renal
[8] = system: HOP-62 NSCLC
[9] = system: SNB-75 CNS
[10] = system: SK-OV-3 ovarian
[11] = system: IGROV1 ovarian
[12] = system: SK-MEL-28 melanoma
[13] = system: OVCAR-4 ovarian
[14] = system: EKVX NSCLC
[15] = system: CAKI-1 renal
[16] = system: SK-MEL-2 melanoma
[17] = system: HCT-116 colon
[18] = system: NCI-H226 lung
[19] = system: HCC-2998 colon
[20] = system: LOX IMVI melanoma
[21] = system: RXF 393 renal
[22] = system: SF-295 CNS
[23] = system: MCF7 breast
[24] = system: K-562 leukemia
[25] = system: MALME-3M melanoma
[26] = system: NCI-H23 lung
[27] = system: OVCAR-3 ovarian
[28] = system: A549 NSCLC
[29] = system: UACC-257 melanoma
[30] = system: SK-MEL-5 melanoma
[31] = system: KM12 colon
[32] = system: CCRF-CEM leukemia
[33] = system: ACHN renal
[34] = system: SN12C renal
[35] = system: NCI-H460 lung
[36] = system: UACC-62 melanoma
[37] = system: NCI-H322M lung
[38] = system: RPMI-8226 leukemia
[39] = system: NCI/ADR-RES ovarian
[40] = system: SNB-19 CNS
[41] = system: SR leukemia
[42] = system: HS 578T breast
[43] = system: PC-3 prostate
[44] = system: U251 CNS
[45] = system: MDA-MB-435
[46] = system: COLO 205 colon
[47] = system: BT-549 breast
[48] = system: SF-268 CNS
[49] = system: OVCAR-5 ovarian
[50] = system: HT29 colon
[51] = system: M14 melanoma
[52] = system: MDA-MB-231 breast
[53] = system: SW-620 colon
[54] = system: SF-539 CNS
[55] = system: A498 renal
[56] = system: OVCAR-8 ovarian
[57] = system: HL-60(TB) leukemia
[58] = system: DU-145 prostate
[59] = system: HOP-92 NSCLC
[60] = system: T-47D breast

How did the TGI [1] turn out when `CC(=O)n1c(=O)n(C2CCN(CCCC(=O)c3ccc(F)cc3)CC2)c2ccccc21` was run?
The TGI was greater than 100 µM.

What about the TGI [2] of the same compound?
Its TGI is greater than 100 µM.

And the TGI [3]?
The TGI was greater than 100 µM.

And the TGI [4]?
The TGI was 91.5 µM.

What about the TGI [5] of the same compound?
Its TGI is 44.2 µM.

And the TGI [6]?
The TGI was greater than 100 µM.

And the TGI [7]?
The TGI was 94.6 µM.

And the TGI [8]?
The TGI was 87.2 µM.

What about the TGI [9] of the same compound?
The TGI was greater than 100 µM.

And the TGI [10]?
The TGI was greater than 100 µM.

What about the TGI [11] of the same compound?
Its TGI is greater than 100 µM.

And the TGI [12]?
Its TGI is 70.3 µM.

What about the TGI [13] of the same compound?
The TGI was greater than 100 µM.

What about the TGI [14] of the same compound?
The TGI was greater than 100 µM.

And the TGI [15]?
Its TGI is greater than 100 µM.

What about the TGI [16] of the same compound?
The TGI was 95.7 µM.

And the TGI [17]?
Its TGI is greater than 100 µM.

And the TGI [18]?
Its TGI is 93.7 µM.

What about the TGI [19] of the same compound?
The TGI was 83.4 µM.

And the TGI [20]?
Its TGI is 60.1 µM.

And the TGI [21]?
The TGI was greater than 100 µM.

And the TGI [22]?
Its TGI is greater than 100 µM.

What about the TGI [23] of the same compound?
Its TGI is 80.8 µM.

And the TGI [24]?
Its TGI is 53.7 µM.

What about the TGI [25] of the same compound?
Its TGI is 43.3 µM.

What about the TGI [26] of the same compound?
The TGI was greater than 100 µM.

And the TGI [27]?
Its TGI is 98.1 µM.

What about the TGI [28] of the same compound?
The TGI was greater than 100 µM.

And the TGI [29]?
The TGI was 45.7 µM.

And the TGI [30]?
Its TGI is 29.2 µM.

And the TGI [31]?
Its TGI is greater than 100 µM.

And the TGI [32]?
Its TGI is 75.9 µM.

And the TGI [33]?
The TGI was greater than 100 µM.

And the TGI [34]?
The TGI was greater than 100 µM.

What about the TGI [35] of the same compound?
Its TGI is greater than 100 µM.

What about the TGI [36] of the same compound?
The TGI was 87.3 µM.

And the TGI [37]?
The TGI was greater than 100 µM.

And the TGI [38]?
Its TGI is 53.1 µM.

And the TGI [39]?
Its TGI is greater than 100 µM.

What about the TGI [40] of the same compound?
The TGI was greater than 100 µM.

What about the TGI [41] of the same compound?
Its TGI is 38.8 µM.

And the TGI [42]?
Its TGI is greater than 100 µM.

What about the TGI [43] of the same compound?
Its TGI is greater than 100 µM.

And the TGI [44]?
The TGI was greater than 100 µM.

And the TGI [45]?
Its TGI is 88.7 µM.

And the TGI [46]?
The TGI was 35 µM.

And the TGI [47]?
Its TGI is greater than 100 µM.

And the TGI [48]?
The TGI was greater than 100 µM.

What about the TGI [49] of the same compound?
The TGI was greater than 100 µM.

And the TGI [50]?
Its TGI is 64.2 µM.

What about the TGI [51] of the same compound?
Its TGI is 42.9 µM.

And the TGI [52]?
The TGI was greater than 100 µM.

And the TGI [53]?
The TGI was greater than 100 µM.

What about the TGI [54] of the same compound?
The TGI was 59.4 µM.

What about the TGI [55] of the same compound?
Its TGI is greater than 100 µM.

What about the TGI [56] of the same compound?
Its TGI is greater than 100 µM.

What about the TGI [57] of the same compound?
The TGI was 31.8 µM.

What about the TGI [58] of the same compound?
The TGI was greater than 100 µM.

What about the TGI [59] of the same compound?
The TGI was greater than 100 µM.

And the TGI [60]?
The TGI was 86.9 µM.
